Measured values reported in US20260384424A1, “HETEROCYCLIC COMPOUND” (published 2026).

Protein sequences, listed by entry. Tags and fused reporters are not part of them. Residues count along the entry.
UniProt O75116, whole entry: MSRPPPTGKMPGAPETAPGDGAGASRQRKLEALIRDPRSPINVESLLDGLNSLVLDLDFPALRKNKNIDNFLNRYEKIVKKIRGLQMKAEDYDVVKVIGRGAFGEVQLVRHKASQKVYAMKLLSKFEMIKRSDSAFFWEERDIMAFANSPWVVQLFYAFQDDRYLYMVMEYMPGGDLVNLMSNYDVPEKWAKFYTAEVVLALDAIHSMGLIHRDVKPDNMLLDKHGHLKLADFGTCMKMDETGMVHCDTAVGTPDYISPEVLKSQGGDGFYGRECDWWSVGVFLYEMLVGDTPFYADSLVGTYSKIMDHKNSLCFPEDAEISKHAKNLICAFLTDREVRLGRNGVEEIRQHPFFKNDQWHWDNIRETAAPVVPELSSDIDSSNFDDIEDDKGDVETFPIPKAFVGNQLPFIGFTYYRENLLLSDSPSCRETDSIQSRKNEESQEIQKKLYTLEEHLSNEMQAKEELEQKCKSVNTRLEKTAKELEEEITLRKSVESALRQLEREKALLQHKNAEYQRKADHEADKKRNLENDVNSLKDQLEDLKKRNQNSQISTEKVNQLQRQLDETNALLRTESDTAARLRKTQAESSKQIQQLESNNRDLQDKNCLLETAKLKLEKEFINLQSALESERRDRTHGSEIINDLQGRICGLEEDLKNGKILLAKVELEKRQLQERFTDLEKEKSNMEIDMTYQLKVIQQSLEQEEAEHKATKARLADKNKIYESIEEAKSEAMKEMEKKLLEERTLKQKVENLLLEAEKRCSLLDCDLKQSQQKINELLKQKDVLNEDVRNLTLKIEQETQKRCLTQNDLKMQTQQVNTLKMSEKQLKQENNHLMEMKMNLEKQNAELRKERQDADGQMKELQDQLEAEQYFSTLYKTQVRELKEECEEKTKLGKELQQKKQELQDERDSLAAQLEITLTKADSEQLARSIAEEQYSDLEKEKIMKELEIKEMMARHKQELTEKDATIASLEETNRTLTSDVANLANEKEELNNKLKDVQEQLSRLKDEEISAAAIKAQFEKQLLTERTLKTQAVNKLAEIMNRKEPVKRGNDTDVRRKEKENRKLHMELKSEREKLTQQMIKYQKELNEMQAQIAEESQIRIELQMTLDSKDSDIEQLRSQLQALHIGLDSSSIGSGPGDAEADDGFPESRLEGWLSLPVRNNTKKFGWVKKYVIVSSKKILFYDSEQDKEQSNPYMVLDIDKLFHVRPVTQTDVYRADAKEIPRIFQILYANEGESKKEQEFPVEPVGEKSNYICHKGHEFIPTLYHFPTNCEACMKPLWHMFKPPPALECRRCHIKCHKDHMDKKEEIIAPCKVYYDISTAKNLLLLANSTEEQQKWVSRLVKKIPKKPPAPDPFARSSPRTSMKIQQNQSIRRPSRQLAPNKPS
UniProt O75116, 1-553 limits assumed: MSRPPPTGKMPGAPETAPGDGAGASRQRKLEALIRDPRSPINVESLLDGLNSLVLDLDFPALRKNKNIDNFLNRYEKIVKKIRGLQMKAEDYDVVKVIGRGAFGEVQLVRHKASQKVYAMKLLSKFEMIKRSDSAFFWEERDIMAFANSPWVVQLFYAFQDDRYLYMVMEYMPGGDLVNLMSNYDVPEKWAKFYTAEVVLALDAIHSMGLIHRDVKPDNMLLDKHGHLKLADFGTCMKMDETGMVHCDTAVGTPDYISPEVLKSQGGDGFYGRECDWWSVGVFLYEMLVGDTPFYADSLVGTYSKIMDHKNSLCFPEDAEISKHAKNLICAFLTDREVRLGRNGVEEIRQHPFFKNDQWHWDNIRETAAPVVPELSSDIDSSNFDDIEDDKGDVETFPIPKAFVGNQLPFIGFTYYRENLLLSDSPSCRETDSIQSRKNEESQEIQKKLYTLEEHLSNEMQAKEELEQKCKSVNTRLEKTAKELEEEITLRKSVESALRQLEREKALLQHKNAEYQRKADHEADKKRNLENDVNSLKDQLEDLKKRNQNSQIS

Assays:
ROCK2 protein [1] = target: T1, ROCK2 protein (Homo sapiens, UniProt O75116); test: Degradation inducing activity of ROCK2 protein in HUVEC cells, Western Blotting; details: 24 hours
Method: In vitro degradation inducing activity of ROCK2 protein of compounds of Examples was evaluated by Western Blotting (WB).
By a test compound, 10 mM DMSO solution was prepared, which was used as a 10 μM test compound solution. Further, the solution was diluted 10-fold with DMSO to prepare a 1 mM solution, which was used as a 1 μM test compound solution.
HUVEC cells (ATCC: CRL-1730, Lot: 70041472) were cultured in F-12K medium supplemented with 10% FBS, 0.1 mg/mL heparin, 30 mg/mL Endothelial Cell Growth Supplement (ECGS, Corning), and 1% Penicillin/Streptomycin. The HUVEC cells seeded in a 24 well plate at 50,000 cells/well/i mL were cultured for 24 hours, and then 1 μL of DMSO or a test compound solution was added thereto and treatment was performed for 24 hours. Cells were harvested and lysed for 20 minutes on ice using lysis buffer (Cell Signaling Technology, Cat #9803) supplemented with protease inhibitor cocktail (Sigma, Cat #P8340; Roche, Cat #P11873580001), and phosphatase inhibitor cocktail (Sigma, Cat #P5726, P0044). The lysate was sonicated (15 seconds, amplitude 30%, 1 cycle) and then centrifuged at 12500 rpm for 15 minutes at 4 °C. The protein concentration was determined by BCA assay kit (Thermo Fisher Scientific, Cat #23225).
The western blotting was performed using Simple Western JESS (protein simple). A cell lysis sample (protein amount; about 1.06 μg) was loaded on a plate of Simple Western JESS, and the expression level of ROCK2 protein was detected using a 12-230 kDa Wes Separation Module (Protein simple, Cat #SM-W004), an Anti-Rabbit Detection Module for Wes (Protein simple, Cat #DM-001), and a Total Protein Detection Module for Wes (Protein simple, Cat #DM-TP01). As the primary antibody, a material obtained by diluting ROCK2 (D1B1) Rabbit mAb (Cell Signaling Technology, Cat #9029) at 1:10 was used, and as the secondary antibody, a material obtained by diluting HRP-labeled anti-rabbit IgG antibody (Cell Signaling Technology, Cat #7074S) at 1:100 was used. The expression level of the target protein was standardized using the total protein amount loaded as a reference. The standardized expression level data of the control (DMSO) was taken as 100%, and the degradation rate (%) was calculated from the average standardized expression level data of the test compound. All analysis steps, such as data detection and analysis, are fully automated.
With respect to the ROCK2 protein degradation rate of the test compound, the protein degradation rates (%) at the evaluation concentrations were set to A≥75%, 75%>B≥50%, 50%>C≥25%, and D<25%, and are shown in Table 7.

ROCK2 protein [2] = target: T1, ROCK2 protein; test: ROCK2 kinase inhibitory activity, mobility shift assay (MSA)
Method: The ROCK2 kinase inhibitory activity was measured using a mobility shift assay (MSA) provided by Carna Biosciences, Inc.
The test compound was dissolved in DMSO and further diluted with DMSO to prepare a solution having a concentration 100 times the evaluation concentration. The solution was further diluted 25 times with an assay buffer (20 mmol/L HEPES, 0.01% Triton (registered trademark) X-100, 1 mmol/L DTT, pH 7.5) to obtain a test compound solution.
The human ROCK2 kinase was expressed by fusing the catalytic domain (1 to 553 amino acids of Accession No. NP_004841.2) with GST at the N-terminus using the baculovirus expression system. GST-ROCK2 was purified by glutathione sepharose chromatography.
A 4-fold concentration substrate (LIMKtide, 1000 nmol/L)/ATP (5 μmol/L)/metal solution (Mg, 5 mmol/L) was prepared with kit buffer (20 mmol/L HEPES, 0.01% Triton (registered trademark) X-100, 5 mmol/L DTT, pH 7.5). A 2-fold concentration kinase solution was prepared with assay buffer. 5 μL of a 4-fold concentration test compound solution, 5 μL of a 4-fold concentration substrate/ATP/metal solution, and 10 μL of a 2-fold concentration kinase solution were mixed in a well of a polypropylene 384 well plate, and the mixture was reacted at room temperature for 1 hour. 70 μL of termination buffer (127 mmol/L HEPES, 0.01% Triton (registered trademark) X-100, 26.7 mmol/L EDTA-2Na, 1% DMSO, pH 7.5) was added to stop the reaction. The substrate peptide and the phosphorylated peptide in the reaction solution were separated and quantified using a LabChip (trademark) system (Perkin Elmer).
The kinase reaction was evaluated by the product ratio (P/(P+S)) calculated from the substrate peptide peak height (S) and the phosphorylated peptide peak height (P).
The average signal of the control well including all the reaction components was set to 0% suppression, the average signal of the background well (no enzyme added) was set to 100% suppression, and the inhibition rate was calculated from the average signal of the test compound test well.
The ROCK2 inhibition rate and the evaluation concentration of the test compound are shown in Table 4-1, and the IC50 value of the inhibitory activity is shown in Table 4-2. The ROCK2 inhibition rate in Table 4-1 is represented by A Z 75%, 75%>B≥50%, 50%>C≥25%, and D<25%, and the IC50 value in Table 4-2 is represented by A<0.03 μM, 0.03 μM≤B<0.3 μM, 0.3 μM≤C<3 μM, and 3 μM≤D<10 μM.

[3] = evaluation concentration 0.03 μm

| SMILES | ROCK2 protein degradation rate (ROCK2 protein [1]; at 1 μm) | ROCK2 protein degradation rate (ROCK2 protein [1]; at 10 μm) | ROCK2 inhibition rate (ROCK2 protein [2]; [3]) | ROCK2 inhibition rate (ROCK2 protein [2]; evaluation concentration 10 μm) | ROCK2 inhibition rate (ROCK2 protein [2]; evaluation concentration 1 μm) |
| --- | --- | --- | --- | --- | --- |
| C[C@@H]1CN(CC(=O)N2CC(C)(C)c3ncc(Cc4ccc(F)cc4)cc32)[C@@H](CN(C)CCOCCOCCNC[C@@H](C(=O)Nc2ccc3cnccc3c2)c2ccccc2)CN1 | C (50%>C≥25%) | A (A≥75%) | B (75%>B≥50%) | – | – |
| COC[C@H]1CN[C@H](C)CN1CC(=O)N1CC(C)(C)c2ncc(Cc3cccc(OCCOCCOCCOCCOCCOCCOCCN[C@H](C)c4ccc(C(=O)Nc5ccncc5)cc4)c3)cc21 | B/B (75%>B≥50%) | B/B (75%>B≥50%) | – | A (A Z 75%) | – |
| COC[C@H]1CN[C@H](C)CN1CC(=O)N1CC(C)(C)c2ncc(Cc3ccccc3OCCOCCOCCOCCNC[C@@H](C(=O)Nc3ccc4cnccc4c3)c3ccccc3)cc21 | B (75%>B≥50%) | A (A≥75%) | C (50%>C≥25%) | – | – |
| COC[C@H]1CN[C@H](C)CN1CC(=O)N1CC(C)(C)c2nc(CN(C)CCOCCOCCOCCN[C@H](Cc3cccc(F)c3)C(=O)Nc3ccc(-c4ccncc4)cc3)c(Cc3ccc(F)cc3)cc21 | B/B (75%>B≥50%) | B/B (75%>B≥50%) | – | – | C (50%>C≥25%) |
| C[C@@H]1CN(CC(=O)N2CC(C)(C)c3ncc(Cc4ccc(F)cc4)cc32)[C@@H](CN(C)CCOCCOCCOCCOCCOCCOCCN[C@H](Cc2cccc(F)c2)C(=O)Nc2ccc(-c3ccncc3)cc2)CN1 | D/D (D<25%) | D/D (D<25%) | – | – | – |
| COC[C@H]1CN[C@H](C)CN1CC(=O)N1CC(C)(C)c2ncc(Cc3cccc(OCCOCCOCCOCCN[C@H](Cc4cccc(F)c4)C(=O)Nc4ccc(-c5ccncc5)cc4)c3)cc21 | C (50%>C≥25%) | B (75%>B≥50%) | – | – | – |
| COC[C@H]1CN[C@H](C)CN1CC(=O)N1CC(C)(C)c2ncc(Cc3cccc(OCCOCCN[C@H](C)c4ccc(C(=O)Nc5ccncc5)cc4)c3)cc21 | C (50%>C≥25%) | A (A≥75%) | – | – | – |
| COC[C@H]1CN[C@H](C)CN1CC(=O)N1CC(C)(C)c2nc(CN(C)CCOCCOCCOCCN[C@H](C)c3ccc(C(=O)Nc4ccncc4)cc3)c(Cc3ccc(F)cc3)cc21 | A (A≥75%) | B (75%>B≥50%) | – | A (A Z 75%) | – |
| COC[C@H]1CN[C@H](C)CN1CC(=O)N1CC(C)(C)c2ncc(Cc3cccc(OCCOCCOCCOCCOCCOCCOCCN[C@H](Cc4cccc(F)c4)C(=O)Nc4ccc(-c5ccncc5)cc4)c3)cc21 | D (D<25%) | B (75%>B≥50%) | – | – | – |

The remaining lines, values ahead:

| ROCK2 protein degradation rate (ROCK2 protein [1]; at 1 μm) | ROCK2 protein degradation rate (ROCK2 protein [1]; at 10 μm) | ROCK2 inhibition rate (ROCK2 protein [2]; [3]) | ROCK2 inhibition rate (ROCK2 protein [2]; evaluation concentration 10 μm) | ROCK2 inhibition rate (ROCK2 protein [2]; evaluation concentration 1 μm) | SMILES |
| --- | --- | --- | --- | --- | --- |
| C (50%>C≥25%) | A (A≥75%) | B (75%>B≥50%) | – | – | COC[C@H]1CN[C@H](C)CN1CC(=O)N1CC(C)(C)c2nc(CN(C)CCOCCNC[C@@H](C(=O)Nc3ccc4cnccc4c3)c3ccccc3)c(Cc3ccc(F)cc3)cc21 |
| B/B (75%>B≥50%) | B/B (75%>B≥50%) | – | – | D (D<25%) | COC[C@H]1CN[C@H](C)CN1CC(=O)N1CC(C)(C)c2ncc(Cc3cccc(OCCOCCOCCOCCOCCOCCOCCOCCN[C@H](Cc4cccc(F)c4)C(=O)Nc4ccc(-c5ccncc5)cc4)c3)cc21 |
| D (D<25%) | A (A≥75%) | – | – | C (50%>C≥25%) | C[C@@H]1CN(CC(=O)N2CC(C)(C)c3ncc(Cc4ccc(F)cc4)cc32)[C@@H](CN(C)CCOCCOCCN[C@H](Cc2cccc(F)c2)C(=O)Nc2ccc(-c3ccncc3)cc2)CN1 |
| – | A (A≥75%) | – | A (A Z 75%) | – | C[C@@H]1CN(CC(=O)N2CC(C)(C)c3ncc(Cc4ccc(F)cc4)cc32)[C@@H](CN(C)CCOCCOCCOCCN[C@H](C)c2ccc(C(=O)Nc3ccncc3)cc2)CN1 |
| D (D<25%) | B (75%>B≥50%) | – | – | – | COC[C@H]1CN[C@H](C)CN1CC(=O)N1CC(C)(C)c2ncc(Cc3ccccc3OCCOCCOCCOCCOCCN[C@H](Cc3cccc(F)c3)C(=O)Nc3ccc(-c4ccncc4)cc3)cc21 |
| D (D<25%) | A (A≥75%) | – | – | – | COC[C@H]1CN[C@H](C)CN1CC(=O)N1CC(C)(C)c2nc(CN(C)CCOCCOCCNC[C@@H](C(=O)Nc3ccc4cnccc4c3)c3ccccc3)c(Cc3ccc(F)cc3)cc21 |
| D (D<25%) | B (75%>B≥50%) | – | – | – | COC[C@H]1CN[C@H](C)CN1CC(=O)N1CC(C)(C)c2ncc(Cc3cccc(OCCOCCOCCOCCOCCN[C@H](Cc4cccc(F)c4)C(=O)Nc4ccc(-c5ccncc5)cc4)c3)cc21 |
| B (75%>B≥50%) | A (A≥75%) | – | – | – | COC[C@H]1CN[C@H](C)CN1CC(=O)N1CC(C)(C)c2ncc(Cc3cccc(OCCOCCOCCN[C@H](C)c4ccc(C(=O)Nc5ccncc5)cc4)c3)cc21 |
| B (75%>B≥50%) | A (A≥75%) | – | – | – | COC[C@H]1CN[C@H](C)CN1CC(=O)N1CC(C)(C)c2ncc(Cc3ccccc3OCCOCCOCCOCCOCCOCCOCCNC[C@@H](C(=O)Nc3ccc4cnccc4c3)c3ccccc3)cc21 |
| C/C (50%>C≥25%) | C/C (50%>C≥25%) | – | – | – | COC[C@H]1CN[C@H](C)CN1CC(=O)N1CC(C)(C)c2ncc(Cc3cccc(OCCOCCOCCOCCOCCN[C@H](C)c4ccc(C(=O)Nc5ccncc5)cc4)c3)cc21 |
| C (50%>C≥25%) | A (A≥75%) | – | – | – | C[C@@H]1CN(CC(=O)N2CC(C)(C)c3ncc(Cc4ccc(F)cc4)cc32)[C@@H](CN(C)CCOCCOCCOCCNC[C@@H](C(=O)Nc2ccc3cnccc3c2)c2ccccc2)CN1 |
| B (75%>B≥50%) | A (A≥75%) | – | – | – | C[C@@H]1CN(CC(=O)N2CC(C)(C)c3ncc(Cc4ccc(F)cc4)cc32)[C@@H](CN(C)CCOCCOCCOCCOCCOCCOCCNC[C@@H](C(=O)Nc2ccc3cnccc3c2)c2ccccc2)CN1 |
